The experiment has as its target 5-hydroxytryptamine receptor 2B (Homo sapiens, UniProt P41595). The experiment is described as follows: Agonist activity against human 5HT2B receptor by FLIPR assay relative to 5HT. Type of experiment: functional.

By UniProt entry, the sequences of proteins in these tests, tags left out.
UniProt P41595, whole entry: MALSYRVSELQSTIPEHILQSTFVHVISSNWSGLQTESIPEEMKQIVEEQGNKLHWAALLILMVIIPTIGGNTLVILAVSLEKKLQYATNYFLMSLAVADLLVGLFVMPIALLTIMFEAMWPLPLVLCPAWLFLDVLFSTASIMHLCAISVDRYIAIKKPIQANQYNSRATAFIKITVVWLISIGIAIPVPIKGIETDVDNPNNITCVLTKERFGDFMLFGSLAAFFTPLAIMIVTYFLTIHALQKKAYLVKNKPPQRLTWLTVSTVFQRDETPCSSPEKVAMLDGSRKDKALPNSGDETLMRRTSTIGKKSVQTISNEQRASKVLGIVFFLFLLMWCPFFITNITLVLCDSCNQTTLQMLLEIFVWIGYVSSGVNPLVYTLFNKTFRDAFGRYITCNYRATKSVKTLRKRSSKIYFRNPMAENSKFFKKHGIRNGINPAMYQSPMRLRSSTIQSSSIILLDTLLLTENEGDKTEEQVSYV

As for `Clc1ccccc1O[C@H]1CCCc2ccc(N3CCNCC3)nc21`, the Activity stood at 61%.

With `Clc1ccccc1O[C@@H]1CCCc2ccc(N3CCNCC3)nc21`, the Activity is 20%.
